Test results taken from US6998422B2, “Lipid peroxide-lowering compositions” (Sankyo Company, Limited, priority 2000, dated 2006).

Test system: blood lipid peroxides
Test: Blood lipid peroxide levels in serum of beagle dogs after oral dosing for 11 days (Yagi's method, fluorometer)
Details: relative ratio against averaged pre-dosing level (100), oral capsule once daily, pravastatin 2 mg/kg, pantethine 300 mg/kg, mean of 5 dogs

Compound: CC(C)(CO)[C@@H](O)C(=O)NCCC(=O)NCCSSCCNC(=O)CCNC(=O)[C@H](O)C(C)(C)CO [Pantethine alone, Pantethine]
- Blood Lipid Peroxide Levels after administration, 4 days (4 days): 82.5
- Blood Lipid Peroxide Levels after administration, 8 days (8 days): 105.0
